Measured values reported in patent US7445897B2, “Sequence variants of multi-drug resistance genes, MDR1 and MRP1, and methods for assessment of drug penetration and disposition” (University of Washington, priority 2004, dated 2008).

Amino acid sequences for entries named in this document (tags omitted).
UniProt P08183, whole entry S400N: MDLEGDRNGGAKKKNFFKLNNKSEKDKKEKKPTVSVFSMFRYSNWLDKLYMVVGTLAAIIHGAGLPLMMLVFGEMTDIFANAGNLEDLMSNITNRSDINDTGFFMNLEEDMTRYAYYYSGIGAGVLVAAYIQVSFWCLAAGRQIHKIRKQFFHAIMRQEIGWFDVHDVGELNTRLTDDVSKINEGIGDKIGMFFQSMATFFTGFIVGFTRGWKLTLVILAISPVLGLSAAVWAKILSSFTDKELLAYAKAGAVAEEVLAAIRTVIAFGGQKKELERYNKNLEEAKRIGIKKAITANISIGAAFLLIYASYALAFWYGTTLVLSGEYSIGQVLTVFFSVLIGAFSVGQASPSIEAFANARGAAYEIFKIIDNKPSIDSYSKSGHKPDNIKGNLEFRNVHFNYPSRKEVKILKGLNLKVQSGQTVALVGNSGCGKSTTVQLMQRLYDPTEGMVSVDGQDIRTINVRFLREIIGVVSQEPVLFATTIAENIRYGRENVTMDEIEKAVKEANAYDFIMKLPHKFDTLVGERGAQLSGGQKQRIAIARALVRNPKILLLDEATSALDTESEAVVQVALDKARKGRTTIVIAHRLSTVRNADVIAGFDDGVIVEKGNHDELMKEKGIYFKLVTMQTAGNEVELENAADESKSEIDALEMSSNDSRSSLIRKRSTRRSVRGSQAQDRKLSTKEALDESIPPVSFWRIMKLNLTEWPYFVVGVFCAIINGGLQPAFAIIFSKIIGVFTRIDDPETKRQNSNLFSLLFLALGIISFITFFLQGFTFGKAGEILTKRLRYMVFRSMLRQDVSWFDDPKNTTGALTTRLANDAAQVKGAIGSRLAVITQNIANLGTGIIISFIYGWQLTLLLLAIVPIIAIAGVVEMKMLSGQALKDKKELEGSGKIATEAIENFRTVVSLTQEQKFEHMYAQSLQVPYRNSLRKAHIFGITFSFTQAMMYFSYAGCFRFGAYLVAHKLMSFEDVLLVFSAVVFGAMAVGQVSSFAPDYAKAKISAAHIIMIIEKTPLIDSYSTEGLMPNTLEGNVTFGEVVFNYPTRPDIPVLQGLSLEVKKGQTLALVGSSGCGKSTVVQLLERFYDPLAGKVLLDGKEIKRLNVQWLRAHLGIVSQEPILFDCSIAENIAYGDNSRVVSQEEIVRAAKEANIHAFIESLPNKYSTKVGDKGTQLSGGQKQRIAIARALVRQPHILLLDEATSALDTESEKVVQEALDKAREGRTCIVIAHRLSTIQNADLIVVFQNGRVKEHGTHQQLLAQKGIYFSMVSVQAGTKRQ
UniProt P08183, whole entry G185V/S893A: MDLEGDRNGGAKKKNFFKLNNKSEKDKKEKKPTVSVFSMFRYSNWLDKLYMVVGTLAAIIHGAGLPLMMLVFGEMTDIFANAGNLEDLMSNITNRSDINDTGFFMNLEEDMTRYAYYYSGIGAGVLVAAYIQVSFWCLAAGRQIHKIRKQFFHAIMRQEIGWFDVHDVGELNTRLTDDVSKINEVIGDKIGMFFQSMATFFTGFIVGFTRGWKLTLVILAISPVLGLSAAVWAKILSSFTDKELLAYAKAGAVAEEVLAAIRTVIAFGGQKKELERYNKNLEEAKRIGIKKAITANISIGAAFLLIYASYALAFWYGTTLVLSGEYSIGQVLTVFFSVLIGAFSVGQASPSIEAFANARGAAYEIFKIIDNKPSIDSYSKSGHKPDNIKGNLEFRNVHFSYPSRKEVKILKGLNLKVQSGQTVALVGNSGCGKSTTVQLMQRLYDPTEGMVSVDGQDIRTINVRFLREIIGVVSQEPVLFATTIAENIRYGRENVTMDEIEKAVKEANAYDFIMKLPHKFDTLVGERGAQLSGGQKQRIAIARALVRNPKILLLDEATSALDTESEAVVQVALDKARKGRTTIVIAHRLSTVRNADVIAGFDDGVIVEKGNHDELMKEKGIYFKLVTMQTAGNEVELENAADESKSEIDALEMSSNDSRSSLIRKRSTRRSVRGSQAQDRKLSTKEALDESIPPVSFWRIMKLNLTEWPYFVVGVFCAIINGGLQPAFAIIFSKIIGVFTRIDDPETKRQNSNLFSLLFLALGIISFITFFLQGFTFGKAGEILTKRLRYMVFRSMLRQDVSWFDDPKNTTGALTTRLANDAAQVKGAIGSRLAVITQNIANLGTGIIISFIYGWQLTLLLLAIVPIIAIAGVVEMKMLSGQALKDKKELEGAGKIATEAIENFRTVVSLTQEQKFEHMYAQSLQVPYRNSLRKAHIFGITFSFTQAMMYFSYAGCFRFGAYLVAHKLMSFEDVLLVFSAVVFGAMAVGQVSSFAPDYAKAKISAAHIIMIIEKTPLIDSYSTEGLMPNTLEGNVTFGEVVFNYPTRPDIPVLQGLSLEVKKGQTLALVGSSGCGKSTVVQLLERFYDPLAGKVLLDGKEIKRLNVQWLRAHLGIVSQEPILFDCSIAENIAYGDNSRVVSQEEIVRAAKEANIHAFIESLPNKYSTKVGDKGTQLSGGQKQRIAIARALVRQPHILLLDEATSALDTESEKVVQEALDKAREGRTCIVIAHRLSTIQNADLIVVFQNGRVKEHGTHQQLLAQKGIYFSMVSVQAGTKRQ

Experiments:
[1] = biological target: P-glycoprotein (MDR11199, G1199A) in recombinant LLC-PK1 cells (Homo sapiens, UniProt P08183, S400N)
[2] = test system: LLC-PK1 control cells; assay: Transepithelial transport assay of R123
[3] = biological target: P-glycoprotein (MDR1wt) in recombinant LLC-PK1 cells (Homo sapiens, UniProt P08183, G185V/S893A); assay: Transepithelial transport assay of R123; conditions: R123 + 1 μM GF120918

## Rhodamine-123 [R123]
[1]
  efflux transport lower in MDR11199 than in MDR1wt cells: approximately 4.5 fold
  higher accumulation of R123 in MDR11199 cells: ~4.75 fold
[2]; 1 μM R123 alone
  PappB→A/PappA→B: 0.903 ± 0.200
[2]; R123 + 1 μM GF120918
  PappB→A/PappA→B: 1.01 ± 0.33
[3]
  PappB→A/PappA→B: 0.961 ± 0.216
